In assay [1] the target is T1, minor histocompatibility antigen HA-2, immunogenic 'V' variant (encoded by the Myosin 1G (MYO1G) gene) … (human).
T1 peptide: YIGEVLVSV
Description: multimer staining.

For assay [2], the target named is HA-2 V peptide (…) presented by HLA-A*02:01 on antigen presenting cells (human). Description: cell-based or functional assay.
Assay [3] deals with T1, minor histocompatibility antigen HA-2, …. Description: CD69 upregulation, flow cytometry; Jurkat J.RT3-T3.5-CD8 with the TCR, 1:1 with A*02:01 LCL HG0017 cells and increasing HA-2 V peptide, 16-24 h; XLfit; full-length, on cells. In general terms: A flow cytometer gives signals particle by particle.

B1: TCR B (TCR, V domains shown)
Valpha: KQEVTQIPAALSVPEGENLVLNCSFTDSAIYNLQWFRQDPGKGLTSLLLIQSSQREQTSGRLNASLDKSSGRSTLYIAASQPGDSATYLCAVRQGYGGSQGNLIFGKGTKLSVKP
Vbeta: GAGVSQSPRYKVAKRGQDVALRCDPISGHVSLFWYQQALGQGPEFLTYFQNEAQLDKSGLPSDRFFAERPEGSVSTLKIQRTQQEDSAVYLCASSLIQGTNSPLHFGNGTRLTVT
Turning to B1, the binding result in assay [1] was “recognises”.

B2: TCR H (TCR, V domains shown)
Valpha: KQEVTQIPAALSVPEGENLVLNCSFTDSAIYNLQWFRQDPGKGLTSLLLIQSSQREQTSGRLNASLDKSSGRSTLYIAASQPGDSATYLCAVRSGYGGSQGNLIFGKGTKLSVKP
Vbeta: GAGVSQSPRYKVAKRGQDVALRCDPISGHVSLFWYQQALGQGPEFLTYFQNEAQLDKSGLPSDRFFAERPEGSVSTLKIQRTQQEDSAVYLCASSLAGGSLQETQYFGPGTRLLVL
In the case of B2, in assay [1], the binding result is reported as “recognises”.

B3: TCR M (TCR, V domains shown)
Valpha: KQEVTQIPAALSVPEGENLVLNCSFTDSAIYNLQWFRQDPGKGLTSLLLIQSSQREQTSGRLNASLDKSSGRSTLYIAASQPGDSATYLCAVRSGYGGSQGNLIFGKGTKLSVKP
Vbeta: GAGVSQSPRYKVAKRGQDVALRCDPISGHVSLFWYQQALGQGPEFLTYFQNEAQLDKSGLPSDRFFAERPEGSVSTLKIQRTQQEDSAVYLCASSLAGQETQYFGPGTRLLVL
Turning to B3, the binding result in assay [1] was “recognises”.

B4: TCR C (TCR, V domains shown)
Valpha: EDQVTQSPEALRLQEGESSSLNCSYTVSGLRGLFWYRQDPGKGPEFLFTLYSAGEEKEKERLKATLTKKESFLHITAPKPEDSATYLCAVQAWDYGGSQGNLIFGKGTKLSVKP
Vbeta: NAGVMQNPRHLVRRRGQEARLRCSPMKGHSHVYWYRQLPEEGLKFMVYLQKENIIDESGMPKERFSAEFPKEGPSILRIQQVVRGDSAAYFCASSTREGTDTQYFGPGTRLTVL
Regarding B4, the EC50 for CD69 expression, LCL HG0017 cells in assay [2] worked out at 15.7 nM. In addition, in assay [3], the EC50 of peptide is 15.7 nM.

B5: TCR G (TCR, V domains shown)
Valpha: AQTVTQSQPEMSVQEAETVTLSCTYDTSESDYYLFWYKQPPSRQMILVIRQEAYKQQNATENRFSVNFQKAAKSFSLKISDSQLGDAAMYFCAYRRFYNTDKLIFGTGTRLQVFP
Vbeta: DGGITQSPKYLFRKEGQNVTLSCEQNLNHDAMYWYRQDPGQGLRLIYYSQIVNDFQKGDIAEGYSVSREKKESFPLTVTSAQKNPTAFYLCASRSAGYAEAFFGQGTRLTVV
Turning to B5, the EC50 for CD69 expression, LCL HG0017 cells in assay [2] worked out at 21.6 nM. Further, the EC50 of peptide in assay [3] was found to be 21.6 nM.

B6: TCR A (TCR, V domains shown)
Valpha: KQEVTQIPAALSVPEGENLVLNCSFTDSAIYNLQWFRQDPGKGLTSLLLIQSSQREQTSGRLNASLDKSSGRSTLYIAASQPGDSATYLCAVRPKNYGGSQGNLIFGKGTKLSVKP
Vbeta: GAGVSQSPRYKVAKRGQDVALRCDPISGHVSLFWYQQALGQGPEFLTYFQNEAQLDKSGLPSDRFFAERPEGSVSTLKIQRTQQEDSAVYLCASSFPGLASYEQYFGPGTRLTVT
For B6, the binding result in assay [1] was “recognises”.

B7: TCR P (TCR, V domains shown)
Valpha: KQEVTQIPAALSVPEGENLVLNCSFTDSAIYNLQWFRQDPGKGLTSLLLIQSSQREQTSGRLNASLDKSSGRSTLYIAASQPGDSATYLCAVRPKNYGGSQGNLIFGKGTKLSVKP
Vbeta: GAGVSQSPRYKVAKRGQDVALRCDPISGHVSLFWYQQALGQGPEFLTYFQNEAQLDKSGLPSDRFFAERPEGSVSTLKIQRTQQEDSAVYLCASSLIQGTNSPLHFGNGTRLTVT
Consider B7, for which, in assay [1], the binding result is reported as “recognises”.

B8: TCR J (TCR, V domains shown)
Valpha: KQEVTQIPAALSVPEGENLVLNCSFTDSAIYNLQWFRQDPGKGLTSLLLIQSSQREQTSGRLNASLDKSSGRSTLYIAASQPGDSATYLCAVRPGNYGGSQGNLIFGKGTKLSVKP
Vbeta: GAGVSQSPRYKVAKRGQDVALRCDPISGHVSLFWYQQALGQGPEFLTYFQNEAQLDKSGLPSDRFFAERPEGSVSTLKIQRTQQEDSAVYLCASSPPGGLGEKLFFGSGTQLSVL
On to B8, for which, in assay [1], the binding result is given as “recognises”.

B9: TCR O (TCR, V domains shown)
Valpha: KQEVTQIPAALSVPEGENLVLNCSFTDSAIYNLQWFRQDPGKGLTSLLLIQSSQREQTSGRLNASLDKSSGRSTLYIAASQPGDSATYLCAVRPKNYGGSQGNLIFGKGTKLSVKP
Vbeta: GAGVSQSPRYKVAKRGQDVALRCDPISGHVSLFWYQQALGQGPEFLTYFQNEAQLDKSGLPSDRFFAERPEGSVSTLKIQRTQQEDSAVYLCASSLAERPGTQYFGPGTRLTVL
With B9, in assay [1], the binding result is recorded as “recognises”.

B10: TCR F (TCR, V domains shown)
Valpha: KQEVTQIPAALSVPEGENLVLNCSFTDSAIYNLQWFRQDPGKGLTSLLLIQSSQREQTSGRLNASLDKSSGRSTLYIAASQPGDSATYLCAVRTKDYGGSQGNLIFGKGTKLSVKP
Vbeta: GAGVSQSPRYKVAKRGQDVALRCDPISGHVSLFWYQQALGQGPEFLTYFQNEAQLDKSGLPSDRFFAERPEGSVSTLKIQRTQQEDSAVYLCASSLALPAADSYEQYFGPGTRLTVT
In the case of B10, the binding result in assay [1] is “recognises”.

B11: TCR D (TCR, V domains shown)
Valpha: KQEVTQIPAALSVPEGENLVLNCSFTDSAIYNLQWFRQDPGKGLTSLLLIQSSQREQTSGRLNASLDKSSGRSTLYIAASQPGDSATYLCAVRRGYGGSQGNLIFGKGTKLSVKP
Vbeta: GAGVSQSPRYKVAKRGQDVALRCDPISGHVSLFWYQQALGQGPEFLTYFQNEAQLDKSGLPSDRFFAERPEGSVSTLKIQRTQQEDSAVYLCASSLTAGAYNEQFFGPGTRLTVL
Turning to B11, the binding result in assay [1] is “recognises”.

B12: TCR L (TCR, V domains shown)
Valpha: KQEVTQIPAALSVPEGENLVLNCSFTDSAIYNLQWFRQDPGKGLTSLLLIQSSQREQTSGRLNASLDKSSGRSTLYIAASQPGDSATYLCAVRTKDYGGSQGNLIFGKGTKLSVKP
Vbeta: GAGVSQSPRYKVAKRGQDVALRCDPISGHVSLFWYQQALGQGPEFLTYFQNEAQLDKSGLPSDRFFAERPEGSVSTLKIQRTQQEDSAVYLCASSFPGLVSYEQYFGPGTRLTVT
For B12, the binding result in assay [1] was “recognises”.

B13: TCR K (TCR, V domains shown)
Valpha: KQEVTQIPAALSVPEGENLVLNCSFTDSAIYNLQWFRQDPGKGLTSLLLIQSSQREQTSGRLNASLDKSSGRSTLYIAASQPGDSATYLCAVRPVNYGGSQGNLIFGKGTKLSVKP
Vbeta: GAGVSQSPRYKVAKRGQDVALRCDPISGHVSLFWYQQALGQGPEFLTYFQNEAQLDKSGLPSDRFFAERPEGSVSTLKIQRTQQEDSAVYLCASRSPRLETQYFGPGTRLLVL
For B13, the binding result in assay [1] is “recognises”.

B14: TCR N (TCR, V domains shown)
Valpha: KQEVTQIPAALSVPEGENLVLNCSFTDSAIYNLQWFRQDPGKGLTSLLLIQSSQREQTSGRLNASLDKSSGRSTLYIAASQPGDSATYLCAVRPGNYGGSQGNLIFGKGTKLSVKP
Vbeta: GAGVSQSPRYKVAKRGQDVALRCDPISGHVSLFWYQQALGQGPEFLTYFQNEAQLDKSGLPSDRFFAERPEGSVSTLKIQRTQQEDSAVYLCASSLIQGTNSPLHFGNGTRLTVT
With B14, the binding result in assay [1] was “recognises”.

B15: TCR E (TCR, V domains shown)
Valpha: GQQVMQIPQYQHVQEGEDFTTYCNSSTTLSNIQWYKQRPGGHPVFLIQLVKSGEVKKQKRLTFQFGEAKKNSSLHITATQTTDVGTYFCAADPRDNYGQNFVFGPGTRLSVLP
Vbeta: DTGVSQNPRHKITKRGQNVTFRCDPISEHNRLYWYRQTLGQGPEFLTYFQNEAQLEKSRLLSDRFSAERPKGSFSTLEIQRTEQGDSAMYLCASSPLAGGETQYFGPGTRLLVL
For B15, the binding result in assay [1] is “recognises”.

The values above are taken from patent publication US20260199470A1 (published 2026).
